Source: PMC6907089

Experiments:
Test in all cases: BioID proximity labeling, quantitative mass spectrometry
Settings in all cases: chain shown with the change; inducible HEK293 cells; read off a plot
[1] = biological target: T1, AP-1 complex subunit beta-1 (AP1B1), Q10567
T1 chain: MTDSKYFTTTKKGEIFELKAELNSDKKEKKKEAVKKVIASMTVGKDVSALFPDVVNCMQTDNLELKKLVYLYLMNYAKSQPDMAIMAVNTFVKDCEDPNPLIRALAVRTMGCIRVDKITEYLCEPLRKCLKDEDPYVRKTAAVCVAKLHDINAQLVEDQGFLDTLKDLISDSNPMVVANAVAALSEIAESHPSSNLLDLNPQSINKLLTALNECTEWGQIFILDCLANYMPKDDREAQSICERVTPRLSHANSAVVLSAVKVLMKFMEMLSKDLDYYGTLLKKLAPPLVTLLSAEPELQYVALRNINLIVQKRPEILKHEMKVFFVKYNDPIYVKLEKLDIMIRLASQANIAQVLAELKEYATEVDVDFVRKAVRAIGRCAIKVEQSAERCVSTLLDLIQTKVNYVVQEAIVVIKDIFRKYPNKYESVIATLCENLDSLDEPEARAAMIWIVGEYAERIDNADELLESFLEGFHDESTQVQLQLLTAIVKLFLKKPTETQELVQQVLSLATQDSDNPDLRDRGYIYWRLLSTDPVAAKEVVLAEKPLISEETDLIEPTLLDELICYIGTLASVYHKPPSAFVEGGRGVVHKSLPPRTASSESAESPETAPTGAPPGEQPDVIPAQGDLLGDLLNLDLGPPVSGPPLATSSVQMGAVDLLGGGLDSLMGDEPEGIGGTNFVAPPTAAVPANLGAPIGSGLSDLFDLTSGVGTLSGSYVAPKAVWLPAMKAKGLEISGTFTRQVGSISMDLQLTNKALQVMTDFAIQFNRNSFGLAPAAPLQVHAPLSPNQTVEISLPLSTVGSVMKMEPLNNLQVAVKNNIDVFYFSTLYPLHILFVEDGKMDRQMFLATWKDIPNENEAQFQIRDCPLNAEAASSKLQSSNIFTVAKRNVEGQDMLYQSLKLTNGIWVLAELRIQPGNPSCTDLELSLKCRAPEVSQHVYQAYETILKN

[2] = biological target: T2, PDXD1 (pyridoxal-dependent decarboxylase domain-containing protein 1), Q6P996
T2 chain: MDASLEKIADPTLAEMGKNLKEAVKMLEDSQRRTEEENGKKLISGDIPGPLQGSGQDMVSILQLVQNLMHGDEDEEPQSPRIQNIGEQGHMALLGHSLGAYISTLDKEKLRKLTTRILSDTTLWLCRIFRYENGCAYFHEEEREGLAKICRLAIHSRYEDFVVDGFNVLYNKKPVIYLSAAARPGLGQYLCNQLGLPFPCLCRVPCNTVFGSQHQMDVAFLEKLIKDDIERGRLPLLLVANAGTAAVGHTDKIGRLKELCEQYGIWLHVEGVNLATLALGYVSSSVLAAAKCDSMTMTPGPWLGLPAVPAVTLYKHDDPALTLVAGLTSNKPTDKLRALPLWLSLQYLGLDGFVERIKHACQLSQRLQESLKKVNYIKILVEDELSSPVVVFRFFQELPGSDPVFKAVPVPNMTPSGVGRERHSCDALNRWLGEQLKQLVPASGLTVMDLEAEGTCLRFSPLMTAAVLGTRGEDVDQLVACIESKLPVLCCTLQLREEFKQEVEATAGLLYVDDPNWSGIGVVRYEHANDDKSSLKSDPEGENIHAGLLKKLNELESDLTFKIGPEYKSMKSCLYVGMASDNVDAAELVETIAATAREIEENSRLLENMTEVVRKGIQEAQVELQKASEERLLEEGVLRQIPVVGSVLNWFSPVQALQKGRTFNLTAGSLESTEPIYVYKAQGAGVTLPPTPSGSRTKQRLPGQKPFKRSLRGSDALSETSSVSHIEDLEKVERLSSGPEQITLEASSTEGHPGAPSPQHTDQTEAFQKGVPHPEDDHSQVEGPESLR

[3] = biological target: T3, APMAP (adipocyte plasma membrane-associated protein), Q9HDC9
T3 chain: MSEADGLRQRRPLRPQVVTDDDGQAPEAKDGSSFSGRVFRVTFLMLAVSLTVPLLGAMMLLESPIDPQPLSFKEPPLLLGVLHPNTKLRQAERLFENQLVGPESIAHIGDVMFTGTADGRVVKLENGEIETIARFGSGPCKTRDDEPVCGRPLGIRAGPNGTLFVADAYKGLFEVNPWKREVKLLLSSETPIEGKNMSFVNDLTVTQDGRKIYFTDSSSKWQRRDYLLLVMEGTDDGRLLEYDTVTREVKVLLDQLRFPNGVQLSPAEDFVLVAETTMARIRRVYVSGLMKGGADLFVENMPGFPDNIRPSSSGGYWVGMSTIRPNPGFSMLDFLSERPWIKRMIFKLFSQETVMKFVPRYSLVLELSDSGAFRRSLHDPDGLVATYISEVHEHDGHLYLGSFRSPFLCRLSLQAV

[4] = biological target: protein transport protein Sec23B, Q15437
[5] = biological target: T4, ubiquitin carboxyl-terminal hydrolase CYLD, Q9NQC7
T4 chain: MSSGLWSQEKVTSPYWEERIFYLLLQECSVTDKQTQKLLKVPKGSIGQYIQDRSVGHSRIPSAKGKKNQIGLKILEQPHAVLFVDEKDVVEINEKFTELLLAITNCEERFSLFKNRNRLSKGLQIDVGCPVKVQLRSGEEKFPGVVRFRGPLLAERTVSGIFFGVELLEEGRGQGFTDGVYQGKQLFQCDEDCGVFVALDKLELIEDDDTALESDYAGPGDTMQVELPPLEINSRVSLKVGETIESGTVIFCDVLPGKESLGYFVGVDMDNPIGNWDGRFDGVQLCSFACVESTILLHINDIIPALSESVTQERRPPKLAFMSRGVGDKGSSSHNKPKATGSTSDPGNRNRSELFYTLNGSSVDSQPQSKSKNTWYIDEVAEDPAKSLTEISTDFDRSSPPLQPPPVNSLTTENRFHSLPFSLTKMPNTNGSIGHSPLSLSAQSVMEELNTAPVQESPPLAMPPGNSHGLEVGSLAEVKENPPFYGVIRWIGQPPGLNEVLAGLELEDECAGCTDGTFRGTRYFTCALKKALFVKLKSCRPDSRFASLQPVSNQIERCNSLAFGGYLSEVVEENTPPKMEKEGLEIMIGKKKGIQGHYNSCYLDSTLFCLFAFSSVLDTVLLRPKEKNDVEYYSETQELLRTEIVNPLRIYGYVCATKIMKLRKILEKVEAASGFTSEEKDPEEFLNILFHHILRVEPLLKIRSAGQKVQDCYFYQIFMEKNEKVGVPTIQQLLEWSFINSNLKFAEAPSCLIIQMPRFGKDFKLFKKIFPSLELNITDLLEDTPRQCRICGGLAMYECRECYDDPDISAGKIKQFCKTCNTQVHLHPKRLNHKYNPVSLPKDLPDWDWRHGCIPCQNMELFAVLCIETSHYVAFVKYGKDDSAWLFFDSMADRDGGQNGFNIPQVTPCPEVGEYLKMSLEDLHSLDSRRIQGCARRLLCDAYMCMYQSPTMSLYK

[6] = biological target: protein transport protein Sec23A, Q15436
[7] = biological target: T5, UBIA1, Q9Y5Z9
T5 chain: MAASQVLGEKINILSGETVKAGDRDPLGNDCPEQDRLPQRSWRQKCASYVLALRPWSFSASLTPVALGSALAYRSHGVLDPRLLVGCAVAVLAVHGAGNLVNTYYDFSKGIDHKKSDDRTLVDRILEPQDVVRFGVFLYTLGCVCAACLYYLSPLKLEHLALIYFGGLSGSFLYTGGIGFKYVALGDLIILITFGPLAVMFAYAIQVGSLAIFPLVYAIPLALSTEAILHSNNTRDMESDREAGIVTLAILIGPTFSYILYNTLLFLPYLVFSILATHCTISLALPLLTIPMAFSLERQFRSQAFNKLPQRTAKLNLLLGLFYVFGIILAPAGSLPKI

[8] = biological target: GOGB1, Q14789
[9] = biological target: T6, protein transport protein Sec24B, O95487
T6 chain: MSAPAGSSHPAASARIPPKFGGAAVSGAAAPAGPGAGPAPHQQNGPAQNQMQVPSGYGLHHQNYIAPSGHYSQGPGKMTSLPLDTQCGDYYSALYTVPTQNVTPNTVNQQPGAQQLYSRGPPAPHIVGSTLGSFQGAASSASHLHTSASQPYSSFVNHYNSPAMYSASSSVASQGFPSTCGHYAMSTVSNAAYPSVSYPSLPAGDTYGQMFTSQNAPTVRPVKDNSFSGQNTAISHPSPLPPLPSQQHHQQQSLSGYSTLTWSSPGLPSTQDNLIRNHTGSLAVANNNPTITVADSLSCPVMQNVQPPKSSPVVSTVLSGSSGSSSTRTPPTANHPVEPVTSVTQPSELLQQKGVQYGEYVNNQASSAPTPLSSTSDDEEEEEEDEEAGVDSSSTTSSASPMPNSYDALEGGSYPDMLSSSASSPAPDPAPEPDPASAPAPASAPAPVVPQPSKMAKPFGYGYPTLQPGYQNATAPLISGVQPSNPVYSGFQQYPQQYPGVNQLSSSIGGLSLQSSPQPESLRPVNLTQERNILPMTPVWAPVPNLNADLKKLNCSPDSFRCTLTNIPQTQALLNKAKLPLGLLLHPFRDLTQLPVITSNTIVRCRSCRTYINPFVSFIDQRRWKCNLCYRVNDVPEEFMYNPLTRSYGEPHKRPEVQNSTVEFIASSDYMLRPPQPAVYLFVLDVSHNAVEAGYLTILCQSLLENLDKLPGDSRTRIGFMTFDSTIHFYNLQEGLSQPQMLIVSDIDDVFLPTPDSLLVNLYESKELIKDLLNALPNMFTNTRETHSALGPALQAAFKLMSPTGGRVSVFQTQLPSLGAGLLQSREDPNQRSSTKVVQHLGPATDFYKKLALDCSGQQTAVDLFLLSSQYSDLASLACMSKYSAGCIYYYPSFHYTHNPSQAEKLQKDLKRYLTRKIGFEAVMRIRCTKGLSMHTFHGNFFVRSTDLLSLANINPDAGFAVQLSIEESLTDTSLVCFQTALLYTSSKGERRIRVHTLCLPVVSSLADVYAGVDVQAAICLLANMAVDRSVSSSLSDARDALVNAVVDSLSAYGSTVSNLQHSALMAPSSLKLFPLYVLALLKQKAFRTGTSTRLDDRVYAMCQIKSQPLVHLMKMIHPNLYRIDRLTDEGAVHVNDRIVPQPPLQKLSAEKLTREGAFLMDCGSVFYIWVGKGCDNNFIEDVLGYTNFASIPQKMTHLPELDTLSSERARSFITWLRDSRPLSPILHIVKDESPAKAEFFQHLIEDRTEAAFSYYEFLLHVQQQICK

B1: STING H232 (wild-type; wt), Q86WV6 G207E (protein)
chain: MPHSSLHPSIPCPRGHGAQKAALVLLSACLVTLWGLGEPPEHTLRYLVLHLASLQLGLLLNGVCSLAEELRHIHSRYRGSYWRTVRACLGCPLRRGALLLLSIYFYYSLPNAVGPPFTWMLALLGLSQALNILLGLKGLAPAEISAVCEKGNFNVAHGLAWSYYIGYLRLILPELQARIRTYNQHYNNLLRGAVSQRLYILLPLDCEVPDNLSMADPNIRFLDKLPQQTGDHAGIKDRVYSNSIYELLENGQRAGTCVLEYATPLQTLFAMSQYSQAGFSREDRLEQAKLFCRTLEDILADAPESQNNCRLIAYQEPADDSSFSLSQEVLRHLRQEEKEEVTVGSLKTSAVPSTSTMSQEPELLISGMEKPLPLRTDFS
[1]
  ratio to parent: 0
[2]
  ratio to parent: 0.33
[3]
  ratio to parent: 0.25
[4]
  ratio to parent: 0.38
[5]
  ratio to parent: 0.3
[6]
  ratio to parent: 0.17
[7]
  ratio to parent: 3
[8]
  ratio to parent: 2.7
[9]
  ratio to parent: 0.27

B2: STING R232, Q86WV6 G207E (protein)
chain: MPHSSLHPSIPCPRGHGAQKAALVLLSACLVTLWGLGEPPEHTLRYLVLHLASLQLGLLLNGVCSLAEELRHIHSRYRGSYWRTVRACLGCPLRRGALLLLSIYFYYSLPNAVGPPFTWMLALLGLSQALNILLGLKGLAPAEISAVCEKGNFNVAHGLAWSYYIGYLRLILPELQARIRTYNQHYNNLLRGAVSQRLYILLPLDCEVPDNLSMADPNIRFLDKLPQQTGDHAGIKDRVYSNSIYELLENGQRAGTCVLEYATPLQTLFAMSQYSQAGFSREDRLEQAKLFCRTLEDILADAPESQNNCRLIAYQEPADDSSFSLSQEVLRHLRQEEKEEVTVGSLKTSAVPSTSTMSQEPELLISGMEKPLPLRTDFS
[1]
  ratio to parent: 0.57
[2]
  ratio to parent: 0.37
[3]
  ratio to parent: 0
[4]
  ratio to parent: 0.05
[5]
  ratio to parent: 1.1
[7]
  ratio to parent: 0.54
[8]
  ratio to parent: 0.59
[9]
  ratio to parent: 0.14
